pKi: −log10 of the molar value.
Target: purified human Factor XIa (Homo sapiens (Human), UniProt P03951)
Test: Factor XIa enzyme inhibition assay (chromogenic substrate S-2366)
Assay type: biochemical
Conditions: substrate S-2366, 50 mM HEPES pH 7.4
Protocol: The effectiveness of compounds of the present invention as inhibitors of the coagulation Factors XIa, VIIa, IXa, Xa, XIIa, plasma kallikrein or thrombin, can be determined using a relevant purified serine protease, respectively, and an appropriate synthetic substrate. The rate of hydrolysis of the chromogenic or fluorogenic substrate by the relevant serine protease was measured both in the absence and presence of compounds of the present invention. Assays were conducted at room temperature or at 37° C. […] A decrease in the rate of absorbance or fluorescence change in the presence of inhibitor is indicative of enzyme inhibition. Such methods are known to one skilled in the art. The results of this assay are expressed as the inhibitory constant, Ki.
Values of Ki were determined by allowing the protease to react with the substrate in the presence of the inhibitor. Reactions were allowed to go for periods of 20-180 minutes (depending on the protease) and the velocities (rate of absorbance or fluorescence change versus time) were measured. The following relationships were used to calculate Ki values: (vo−vs)/vs=I/(Ki(1+S/Km)) for a competitive inhibitor with one binding site; or vs/vo=A+((B−A)/(1+((IC50/(I))^n))); and Ki=IC50/(1+S/Km) for a competitive inhibitor where: […]

Amino acid sequences for entries named in this document (tags omitted). Residues count along the entry.
UniProt P03951, 19-387 partner: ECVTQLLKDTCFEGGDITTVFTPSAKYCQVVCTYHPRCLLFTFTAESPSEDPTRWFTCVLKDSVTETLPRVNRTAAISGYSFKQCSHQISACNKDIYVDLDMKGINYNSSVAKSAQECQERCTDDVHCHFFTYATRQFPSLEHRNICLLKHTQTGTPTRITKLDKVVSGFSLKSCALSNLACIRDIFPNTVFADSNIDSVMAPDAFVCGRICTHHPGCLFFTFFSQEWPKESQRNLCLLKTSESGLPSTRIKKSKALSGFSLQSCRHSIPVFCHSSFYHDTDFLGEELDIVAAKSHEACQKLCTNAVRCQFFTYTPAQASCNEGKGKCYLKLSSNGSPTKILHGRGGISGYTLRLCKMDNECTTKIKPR
UniProt P03951, 388-625: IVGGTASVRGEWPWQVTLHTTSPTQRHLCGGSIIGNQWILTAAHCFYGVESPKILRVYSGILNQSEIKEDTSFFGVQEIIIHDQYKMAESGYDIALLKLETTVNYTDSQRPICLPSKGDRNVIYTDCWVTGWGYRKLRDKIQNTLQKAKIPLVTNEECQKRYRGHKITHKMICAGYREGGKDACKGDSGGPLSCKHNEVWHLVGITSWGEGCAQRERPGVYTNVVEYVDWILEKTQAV

pKi: 6.01
SMILES: COC(=O)Nc1ccc2c(c1)NC(=O)CC/C=C/C[C@H](N1CCN(c3cccc(Cl)c3)C(C)C1=O)c1nc-2c[nH]1 (single isomer, unassigned) [Example 158]
